In patent US20020177166A1, “Binding motif of a receptor” (MEDVET SCIENCE PTY.LTD., priority 2000, published 2002):

B1: IL-3: recombinant human IL-3 produced in E. coli (protein, UniProt P08700 20-152, looked up)
Interleukin-3: APMTQTTPLKTSWVNCSNMIDEIITHLKQPPLPLLDFNNLNGEDQDILMENNLRRPNLEAFNRAVKSLQNASAIESILKNLLPCLPLATAAPTRHPIHIKDGDWNEFRRKLTFYLKTLENAQAQQTTLSLAIF

Assays:
Assay type in all cases: cell-based
[1] = tested on: CTL-EN cells; assay: Annexin V (and propidium iodide) staining, flow cytometry; settings: for apoptotic cells (annexin V and propidium iodide positive cells): 20 ng/ml IL-2 or 50 ng/ml IL-3, 30 hours; for annexin V staining: 0.1% FCS, 16 hours
Experimental: CTL-EN cells expressing IL-3Ra and either wtβc or βcHSRSLP→EFAAAA were washed and then plated at 5×10^5 cells/ml in DMEM containing 0.1% FCS and either long/ml IL-3 or 10 ng/ml IL-2 for 18 hours. Cells were then harvested by centrifugation and stained with annexin V according to the manufacturers instructions. Annexin V positive cells were then analysed by flow cytometry.
We then performed Annexin V binding studies to determine if the loss in cell viability in CTL-EN cells expressing the βcHSRSLP→EFAAAA mutant was due to apoptosis. CTL-EN cells expressing wtβc or βcHSRSLP→EFAAAA were washed and placed in medium containing 0.1% FCS and either IL-2 or IL-3 for 16 hours. The cells were then stained with annexin V and apoptotic cells were analysed by flow cytometry.
(§1) Loss of cell viability in CTL-EN cells expressing the βcHSRSLP→EFAAAA in response to IL-3 was also reflected in loss of cellular metabolic activity as determined by the MTS reduction assay. […] To determine if the loss in cellular viability was due to apoptosis, we performed DNA laddering analysis. CTL-EN cells expressing either the wtβc or the βcHSRSLP→EFAAAA mutant were plated out as described above in 20 ng/ml IL-2, no factor (NF) or 50 ng/ml IL-3. Cells were harvested 48 hours later, the DNA extracted and subjected to agarose gel electrophoresis and ethidium bromide staining. […] As an additional means of examining the mode of cell death we performed combined annexin V and propidium iodide staining. For these experiments we examined CTL-EN cells expressing the wtβc, and the βcHSRSLP→EFAAAA mutant as well as two additional mutants, βcS585G and βcRSL→AAA. Cells were plated out in 20 ng/ml IL-2, no factor or 50 ng/ml IL-3, stained with annexin V and propidium iodide after 30 hours and analysed by flow cytometry. […] In the absence of factor, increased apoptotic cells were detected for wtβc (50.0%), βcS585G (45.1%), βcRSL→AAA (55.0%), and the βcHSRSLP→EFAAAA (37.0%) mutant. […] Together, the results shown in FIGS. 24C and 24D indicate that the defect in cell survival is due to increased apoptosis.

[2] = tested on: CTL-EN cells; assay: CTL-EN cell viability, trypan blue exclusion; settings: 0.1% FCS; for viability: CTL-EN wtβc, up to 3 days; for viable cells: CTL-EN βcHSRSLP→EFAAAA
Experimental: (a) CTL-EN cells expressing IL-3Ra and either wtβc or βcHSRSLP→EFAAAA were washed and then plated in duplicate at 2.5×10^5 cells/ml in DMEM containing 0.1% FCS and either 10 ng/ml IL-3, 10 ng/ml IL-2 or long/ml IL-3 and 5 mM LY294002. Viable cells were counted using the trypan blue exclusion method after 4 days. The results shown are typical of 3 experiments. (b) CTL-EN cells expressing IL-3Ra and either wtβc or βcHSRSLP→EFAAAA were washed and then plated in triplicate at 5×10^5 cells/ml in DMEM containing 0.1% FCS and either no IL-3, 1 ng/ml IL-3 or 10 ng/ml IL-3. Metabolic activity was measured each day using the CellTiter96 AQueous one solution cell proliferation assay according to the manufacturers instructions. Shown are the raw absorbance values (490 nm) plotted against day for CTL-EN cells expressing wtβc in the presence of no IL-3 (u), 1 ng/ml IL-3 (I) or 10 ng/ml IL3 (n) and CTL-EN cells expressing the βcHSRSLP→EFAAAA mutant in the presence of no IL-3 (u) or 10 ng/ml IL-3 (t).
Given that 14-3-3 binding to Ser585 of βc is required for PI 3-kinase activation in response to IL-3 and also the important role PI 3-kinase is thought to play in mediating survival signals, we then examined the ability of IL-3 to promote long-term survival in CTL-EN cells expressing the βcHSRSLP→EFAAAA mutant receptor. […] However, a clear defect in the survival of CTL-EN cells expressing the βcHSRSLP→EFAAAA mutant was observed under low serum conditions. CTL-EN cells expressing the wt IL-3 receptor remain greater than 90% viable for up to 3-4 days under low serum conditions (0.1% FCS) in the presence of IL-3. To test the ability of IL-3 to promote cell survival, CTL-EN cells expressing either wtβc or βcHSRSLP→EFAAAA were plated out at 2.5×10^5 cells/ml in the presence of IL-3 or IL-2 in medium containing 0.1% FCS and viable cells were counted after 4 days.
The finding that 14-3-3 binding to Ser585 of βc is required for PI 3-kinase recruitment and activation in response to IL-3 and also the important role PI 3-kinase is thought to play in mediating survival signals raised the possibility that phosphorylation of Ser585 of βc was important in regulating cell survival. […] However, a defect in the survival of CTL-EN cells expressing the βcHSRSLP→EFAAAA mutant was observed under low serum conditions. Thus, while serum is neither necessary nor sufficient in promoting IL-3-mediated CTL-EN cell survival (unpublished observations) it can augment IL-3-mediated survival in cells expressing the βcHSRSLP→EFAAAA mutant receptor. CTL-EN cells expressing either wtβc or βcHSRSLP→EFAAAA were plated out at 5×10^5 cells/ml in the presence of 10 ng/ml IL-310.1% FCS and viable cells were counted over 3 days. […] The viability of CTL-EN cells expressing wtβc or βcHSRSLP→EFAAAA were maintained in the presence of the IL-2 control cytokine.

[3] = tested on: CTL-EN cells; assay: DNA laddering analysis; settings: 20 ng/ml IL-2 or 50 ng/ml IL-3, 48 hours
Experimental: as §1

Molecule | apoptotic cells (annexin V and propidium iodide positive cells) ([1]; CTL-EN wtβc) [%] | annexin V staining ([1]; CTL-EN wtβc) | apoptotic cells (annexin V and propidium iodide positive cells) ([1]; CTL-EN βcHSRSLP→EFAAAA) [%] | annexin V staining ([1]; CTL-EN βcHSRSLP→EFAAAA) | apoptotic cells (annexin V and propidium iodide positive cells) ([1]; CTL-EN βcRSL→AAA) [%] | apoptotic cells (annexin V and propidium iodide positive cells) ([1]; CTL-EN βcS585G) [%] | viability ([2]; 5×10^5 cells/ml) | viable cells ([2]; after 4 days) | viable cells ([2]; 5×10^5 cells/ml, after 3 days) | DNA laddering ([3]; CTL-EN wtβc) | DNA laddering ([3]; CTL-EN βcHSRSLP→EFAAAA)
IL-2: IL-2 control cytokine | 11.8 | negligible annexin V staining | 10.0 | negligible annexin V staining | 8.9 | 15.3 | maintained | able to maintain viability | maintained | no significant DNA laddering | no significant DNA laddering
B1 | 24.1 |  | 42.7 | increased annexin V staining | 51.2 | 46.5 | able to promote viability | 7% | 18% | no significant DNA laddering | clear DNA ladder typical of apoptotic cells
